# Binding of CDR-mutated scFvs to a peptide of the spike HR2 region

Target: peptide PDVDLGDISGINAS, taken from heptad repeat 2 (HR2) of SARS-CoV-2 spike.

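AAYL50 was designed without a model: most single CDR substitutions and a random sample of double and triple ones. In AlphaSeq, yeast of one mating type display the scFv and yeast of the other type display the target. Pairs that bind mate more often; barcode pairs of the diploids are counted by sequencing. Each replicate has its own calibration line, from reference interactions of the BCL2 family. There are three technical replicates.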

Parent scFv Ab-14: VH joined to VL by a (GGGGS)3 linker. Changes lie in the light chain CDRs alone.
VH: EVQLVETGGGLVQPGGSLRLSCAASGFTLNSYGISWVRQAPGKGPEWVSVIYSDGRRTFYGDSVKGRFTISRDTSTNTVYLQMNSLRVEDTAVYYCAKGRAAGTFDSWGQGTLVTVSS
VL: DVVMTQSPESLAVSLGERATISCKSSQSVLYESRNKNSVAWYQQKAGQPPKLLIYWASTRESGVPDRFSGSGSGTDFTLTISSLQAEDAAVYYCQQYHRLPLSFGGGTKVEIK

Substitutions are numbered in sequence along the VL above, starting at 1 (not Kabat). Scale: log10 of Kd in nM, estimated from mating counts; low values are strong binders. Replicates are averaged; those with no signal do not enter the mean. An entry "nd" has no value in the source: the pair was not observed among the diploids in that replicate. This suggests poor binding but is not conclusive.

changes	replicates, log10 nM	log10 Kd (nM), mean	control signals
Q27G/S33H/W56H	0.20 / 0.49 / 0.34	0.34	6 of 9 (4.36)
A57L/L100P/L102G	nd / nd / nd	nd	0 of 9
K36L	1.51 / 1.55 / 1.35	1.47	2 of 9 (4.61)
S38V/Q95V/L102A	nd / nd / nd	nd	1 of 9 (3.43)
K24D/R99I	nd / 3.33 / nd	3.33	0 of 9
E32K/N37C/S58F	nd / nd / 4.19	4.19	0 of 9
E32T/Q95R/L100C	nd / nd / nd	nd	2 of 9 (3.56)
S28E/R60K/P101F	2.47 / 2.53 / 2.86	2.62	5 of 9 (4.34)
K24D/S26L/S103I	3.04 / 4.95 / nd	4.00	2 of 9 (4.02)
Q27N/S38Q	1.49 / 1.48 / 2.02	1.66	0 of 9
N37K/T59F/R99S	2.31 / 2.38 / 2.41	2.37	4 of 9 (4.47)
Q27D/R60T/E61V	1.33 / 1.50 / 1.37	1.40	2 of 9 (5.64)
N35S/K36S/L102W	2.37 / 2.02 / 2.18	2.19	4 of 9 (4.17)
S28W/W56Y/Y97K	2.41 / 1.93 / 2.59	2.31	1 of 9 (3.47)
N37V/A57D/L100R	3.94 / 5.70 / 4.31	4.65	6 of 9 (4.28)
Y31E/V39D	5.07 / nd / 4.75	4.91	5 of 9 (4.47)
K24A/N37H/Q96Y	3.95 / 2.99 / 3.69	3.54	2 of 9 (4.42)
Q27K/Y31P/K36V	0.83 / 0.86 / 1.13	0.94	0 of 9
S26N/E32M/R60A	nd / nd / nd	nd	0 of 9
S62N/Q96P/P101E	nd / nd / nd	nd	1 of 9 (3.76)
S33F/S58G/R60C	nd / nd / nd	nd	0 of 9
L30A/E32A/R60L	nd / nd / nd	nd	0 of 9
S28E/A57P/Q96L	nd / nd / nd	nd	0 of 9
K24T/Q96E/S103V	3.57 / 2.87 / 3.17	3.20	0 of 9
N35A/A40T	nd / nd / nd	nd	0 of 9
V39L/H98N/L100I	1.65 / 1.71 / 1.78	1.72	1 of 9 (3.23)
L30R/S103K	3.11 / nd / nd	3.11	0 of 9
S38Q/E61R/R99I	nd / nd / nd	nd	0 of 9
S28K/R34Y/L100A	0.73 / 1.11 / 0.98	0.94	3 of 9 (3.69)
S58N/E61W/S62C	nd / 4.52 / nd	4.52	2 of 9 (4.35)
A40L/Q96N/P101H	nd / nd / nd	nd	0 of 9

For reference, the parent read 0.65 as the reference entry and 1.68 as a member of this library. As a blank, each scFv also met three strains without target: over library AAYL50, 18% of these pairings were detected, typically at 4.19 and seldom below 2.99. The control count says in how many pairings with the empty strains this scFv gave a signal, with their mean in brackets.

Data: MIT Lincoln Laboratory AlphaSeq set, Engelhart et al. 2022, doi:10.1038/s41597-022-01779-4, as distributed in FLAb.